## Permeability data for macrocyclic peptides

Data: CycPeptMPDB; original report Townsend et al. 2020, doi:10.26434/chemrxiv.13335941.v1.

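Lipid, pH, incubation time, direction and concentration are not recorded in the data file. The list need not hold all peptides of the study. Entries at the database's floor value (log10 P of -10) are not listed.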

PAMPA is the parallel artificial membrane permeability assay, which has no cells and reads passive diffusion. Values are log10 P with P in cm/s, so -5 is more permeable than -7.

* CC(C)C[C@@H]1NC(=O)[C@@H](CC(C)C)NC(=O)C[C@H](Cc2ccccc2)NC(=O)[C@@H]2CCCN2C(=O)[C@H](Cc2ccccc2)NC(=O)[C@@H](CC(C)C)NC(=O)[C@H]2CCCN2C1=O: PAMPA -5.50 (log10 cm/s)
* CCCN1CC(=O)N[C@@H](CC(C)C)C(=O)N[C@@H](CC(C)C)C(=O)N2CCC[C@@H]2C(=O)N[C@@H](CC(C)C)C(=O)N[C@@H](Cc2ccccc2)C1=O: PAMPA -6.62 (log10 cm/s)
* CC(C)C[C@@H]1C(=O)N(C)[C@H](CC(C)C)C(=O)N2CCC[C@H]2C(=O)N(C)[C@@H](CC(C)C)C(=O)N[C@@H](Cc2ccccc2)C(=O)N2CCC[C@@H]2C(=O)N[C@@H](Cc2ccccc2)CC(=O)N1C: PAMPA -5.23 (log10 cm/s)
* CC(C)C[C@H]1NC(=O)[C@@H]2CCCN2C(=O)CN(Cc2ccccc2)C(=O)[C@@H](CC(C)C)NC(=O)[C@H](C)NC(=O)[C@H](Cc2ccccc2)NC1=O: PAMPA -6.10 (log10 cm/s)
* CC(C)C[C@@H]1NC(=O)[C@H](CC(C)C)N(C)C(=O)[C@@H](C)NC(=O)[C@H]2CCCN2C(=O)[C@H](Cc2ccccc2)NC(=O)[C@H](CC(C)C)N(C)C(=O)[C@@H]2CCCN2C1=O: PAMPA -5.72 (log10 cm/s)
* CC(C)C[C@@H]1C(=O)N(Cc2ccccc2)CC(=O)N2CCC[C@H]2C(=O)N(C)[C@H](CC(C)C)C(=O)N[C@@H](Cc2ccccc2)C(=O)N2CCC[C@@H]2C(=O)N(C)[C@H](C)C(=O)N1C: PAMPA -5.66 (log10 cm/s)
* CC(C)C[C@H]1NC(=O)[C@@H]2CCCN2C(=O)C[C@H](Cc2ccccc2)NC(=O)CN(Cc2ccccc2)C(=O)C[C@H](Cc2ccccc2)NC(=O)[C@@H]2CCCN2C(=O)[C@H](Cc2ccccc2)NC1=O: PAMPA -6.01 (log10 cm/s)
* CC(C)C[C@@H]1NC(=O)[C@H]2CCCN2C(=O)CN(Cc2ccccc2)C(=O)[C@H](CC(C)C)NC(=O)[C@@H](C)N(C)C(=O)[C@H]2CCCN2C(=O)[C@H](Cc2ccccc2)NC1=O: PAMPA -6.29 (log10 cm/s)
* CCCN1CC(=O)N[C@H](CC(C)C)C(=O)N[C@@H](Cc2ccccc2)CC(=O)N2CCC[C@H]2C(=O)N[C@H](CC(C)C)C(=O)N[C@@H](Cc2ccccc2)C(=O)N2CCC[C@H]2C1=O: PAMPA -6.10 (log10 cm/s)
* CC(C)C[C@@H]1NC(=O)[C@@H](CC(C)C)N(C)C(=O)[C@H](C)NC(=O)[C@H](Cc2ccccc2)NC(=O)CN(Cc2ccccc2)C(=O)[C@H]2CCCN2C1=O: PAMPA -5.09 (log10 cm/s)
* CC(C)C[C@H]1NC(=O)[C@H]2CCCN2C(=O)[C@H](CC(C)C)N(C)C(=O)[C@@H](CC(C)C)NC(=O)C[C@H](Cc2ccccc2)NC(=O)[C@H]2CCCN2C(=O)[C@H](Cc2ccccc2)NC1=O: PAMPA -5.69 (log10 cm/s)
* CCCN1CC(=O)N[C@@H](CC(C)C)C(=O)N[C@@H](Cc2ccccc2)CC(=O)N2CCC[C@@H]2C(=O)N(C)[C@H](CC(C)C)C(=O)N[C@@H](Cc2ccccc2)C(=O)N2CCC[C@@H]2C1=O: PAMPA -5.87 (log10 cm/s)
* CC(C)C[C@@H]1NC(=O)[C@@H]2CCCN2C(=O)[C@H](CC(C)C)N(C)C(=O)[C@@H](CC(C)C)N(C)C(=O)[C@H](C)N(C)C(=O)[C@@H]2CCCN2C(=O)[C@H](Cc2ccccc2)NC1=O: PAMPA -6.41 (log10 cm/s)
* CC(C)C[C@H]1NC(=O)[C@@H](C)N(C)C(=O)[C@@H]2CCCN2C(=O)[C@H](Cc2ccccc2)NC(=O)CN(Cc2ccccc2)C(=O)[C@H]2CCCN2C(=O)[C@H](CC(C)C)N(C)C1=O: PAMPA -5.40 (log10 cm/s)
* CC(C)C[C@@H]1C(=O)N2CCC[C@@H]2C(=O)N(Cc2ccccc2)CC(=O)N[C@@H](Cc2ccccc2)C(=O)N2CCC[C@@H]2C(=O)N[C@H](C)C(=O)N[C@H](CC(C)C)C(=O)N1C: PAMPA -6.28 (log10 cm/s)
* CC(C)C[C@H]1NC(=O)C[C@H](Cc2ccccc2)NC(=O)[C@@H]2CCCN2C(=O)[C@H](Cc2ccccc2)NC(=O)[C@H](CC(C)C)N(C)C(=O)[C@@H]2CCCN2C(=O)C[C@H](Cc2ccccc2)NC1=O: PAMPA -5.75 (log10 cm/s)
* CC(C)C[C@H]1C(=O)N(Cc2ccccc2)CC(=O)N2CCC[C@@H]2C(=O)N(Cc2ccccc2)CC(=O)N[C@@H](Cc2ccccc2)C(=O)N(C)[C@H](C)C(=O)N1C: PAMPA -5.45 (log10 cm/s)
* CC(C)C[C@H]1NC(=O)[C@@H](C)NC(=O)[C@H]2CCCN2C(=O)[C@H](Cc2ccccc2)NC(=O)CN(Cc2ccccc2)C(=O)[C@@H]2CCCN2C(=O)[C@H](CC(C)C)N(C)C1=O: PAMPA -6.18 (log10 cm/s)
* CC(C)C[C@@H]1C(=O)N[C@@H](Cc2ccccc2)C(=O)N2CCC[C@H]2C(=O)N(C)[C@H](C)C(=O)N[C@H](CC(C)C)C(=O)N[C@@H](Cc2ccccc2)CC(=O)N2CCC[C@H]2C(=O)N1C: PAMPA -5.94 (log10 cm/s)

Excerpt, the final 2 entries:

{"smiles": "CC(C)C[C@H]1NC(=O)[C@@H](C)NC(=O)[C@H]2CCCN2C(=O)[C@H](Cc2ccccc2)NC(=O)CN(Cc2ccccc2)C(=O)[C@@H]2CCCN2C(=O)[C@H](CC(C)C)N(C)C1=O", "PAMPA (log10 cm/s)": "-6.18"}
{"smiles": "CC(C)C[C@@H]1C(=O)N[C@@H](Cc2ccccc2)C(=O)N2CCC[C@H]2C(=O)N(C)[C@H](C)C(=O)N[C@H](CC(C)C)C(=O)N[C@@H](Cc2ccccc2)CC(=O)N2CCC[C@H]2C(=O)N1C", "PAMPA (log10 cm/s)": "-5.94"}